## Binding of CDR-mutated scFvs to a peptide of the spike HR2 region

Reference: Engelhart et al. 2022, doi:10.1038/s41597-022-01779-4. File: FLAb, binding data.

Target: peptide PDVDLGDISGINAS, taken from heptad repeat 2 (HR2) of SARS-CoV-2 spike.

Each scFv is VH, three GGGGS repeats, VL, as in the parent Ab-14, and differs from it in the CDRs of the light chain only.
VH: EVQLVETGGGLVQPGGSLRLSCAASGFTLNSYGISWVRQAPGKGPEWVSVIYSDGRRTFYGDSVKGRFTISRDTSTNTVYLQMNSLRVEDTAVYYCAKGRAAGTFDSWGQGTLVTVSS
VL: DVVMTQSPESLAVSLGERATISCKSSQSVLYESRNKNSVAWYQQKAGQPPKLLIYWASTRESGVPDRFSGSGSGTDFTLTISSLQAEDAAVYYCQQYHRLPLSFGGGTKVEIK

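The parent was found by panning a naive human phage display library on the peptide. The library (AAYL50) carries one to three amino acid substitutions per variant, with no insertions or deletions. The scFvs were displayed on barcoded MATa yeast, the peptide on MATalpha yeast. Pairs that bind mate more often; barcode pairs of the diploids are counted by sequencing. Read counts were normalised to the haploid input and turned into Kd by a linear fit to BCL2-family pairs of known affinity, for each replicate. The assay was run in three technical replicates.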

Variants are written as CDR1, CDR2 and CDR3 of the light chain (limits as in the source). Parent: KSSQSVLYESRNKNSVA, WASTRES, QQYHRLPLS. Values are log10 of the apparent Kd in nM; lower means stronger binding. A pair that was not seen in that replicate is written "n.d."; this usually means weak binding, but a binder can also be missed. In this assay the parent's reference entry averaged 0.65; its copy inside this library read 1.68. Empty control strains, which show no peptide, gave a signal in 18% of pairings with library AAYL50; the median was 4.19 and 95% of these signals were weaker than 2.99. No background was subtracted. Also given: how often the same scFv was detected with the empty control strains, with their mean in brackets.

log10 Kd (nM) by replicate,empty controls,CDR-L1,CDR-L2,CDR-L3
n.d. n.d. n.d.,1/9 (3.54),KSSQSVLYESRNKNSVA,WISERES,QQYHRLPLG
n.d. n.d. 3.13,2/9 (3.87),KSSQSVLYESRNKNSVA,WASTRES,QQYNRLPKR
n.d. n.d. n.d.,0/9,KSSQSVLYESRNKNQVA,WASKRES,PQYHRLPLS
2.03 1.60 n.d.,0/9,KSSQSVLYESRNKNSVA,WAPNRES,QQYHNLPLS
4.14 n.d. n.d.,2/9 (4.24),KSSQSVFYESRNENSVA,WASTRES,EQYHRLPLS
2.10 1.93 1.94,2/9 (4.03),KSSQSVLYESRNKNSVA,WASTRES,QQLHRLALS
1.65 1.70 2.18,1/9 (3.67),KSSHSVLYESRNKNSVA,WASTREW,QQYIRLPLS
n.d. 4.13 n.d.,0/9,KSSQSVLYESRNWNSVA,WASTRES,QQYHRLPLR
n.d. n.d. n.d.,0/9,KSSQSVLYESRNKNSCA,WTSTREF,QQYHRLPLS
1.32 1.59 1.74,0/9,KSSQSVLYESRFKNSVA,WASTRES,NQYHRLPLC
2.13 1.88 1.95,5/9 (4.65),KSSQSVLYESRNKNSLA,WASTKES,QQYHHLPLS
0.13 0.47 0.31,4/9 (5.50),KSSQSPLYESRNKNSVA,WASTRES,QQYARLPLS
3.17 n.d. n.d.,0/9,KSSQSVLWESRNKTSVA,WASTREF,QQYHRLPLS
n.d. n.d. n.d.,1/9 (4.01),KSSQSVLYESRNFNSVA,WASTQES,QQYHRLPLP
n.d. n.d. n.d.,2/9 (5.01),KSLQSVLYESRNKNSVA,FASTRES,QQEHRLPLS
1.45 1.50 1.39,1/9 (3.44),KSSQSVLYESRNKNWVA,WASTRES,QQYHRLPLA
n.d. n.d. n.d.,1/9 (3.51),KSSQFVLYESRNKNSVA,WASTRES,QQYHQLNLS
n.d. n.d. n.d.,0/9,KSSQSVLYESRNKFSVA,WASTRES,VHYHRLPLS
n.d. 3.67 n.d.,1/9 (2.78),KSSQSVLYESRNKNSVA,WNSTRES,QQYKRLRLS
n.d. n.d. n.d.,0/9,KSSQSVLYESRNKNSVA,WAITRSS,QQYTRLPLS
0.80 1.17 1.05,0/9,KSSQSVYYESRNKNSVA,WASTRES,QEYHRLPLS
n.d. n.d. n.d.,0/9,KSSQHVLYESRNKNSGA,WASTRES,QQYHRLPLS
n.d. n.d. 2.27,0/9,KSSQSVLYESRNNNSVA,WASTRDS,QQYHRLPLS
n.d. n.d. 3.07,0/9,KSSQSTLYESRHKNVVA,WASTRES,QQYHRLPLS
n.d. n.d. n.d.,3/9 (4.54),KSSQNVLYESRNKNSVA,WASTRES,QQIHRLPLS
1.49 0.96 1.17,0/9,KSSQSVLYESNNENSVA,WASTRES,QQYHRLPLS
n.d. n.d. n.d.,0/9,KSYQSVLYESRNKNSVA,WASTEES,QQYHRLPLS
0.49 0.68 0.63,4/9 (5.05),KSSQSVLYESVNKNSVA,WASTRES,QQYHRPPLQ
5.62 2.74 n.d.,4/9 (3.80),KSSLSVLYVSRNKNSGA,WASTRES,QQYHRLPLS
n.d. n.d. n.d.,0/9,KSSQSVLFESRNKNSVA,WYSTRES,QQPHRLPLS
n.d. n.d. n.d.,2/9 (4.08),NSSQSVLYESRYKLSVA,WASTRES,QQYHRLPLS
n.d. n.d. n.d.,0/9,KSSQSVLYESRNENIVA,WASTRES,QQYERLPLS
6.39 n.d. n.d.,2/9 (4.01),KSSDSVLYESRNKNSVA,NASTRES,QQYHRLPDS
1.27 1.34 1.39,0/9,LSSQSVLYESRNKNSVA,WASTRES,QQRHRCPLS
3.12 3.43 n.d.,3/9 (5.43),KSSRSVLYESRNKNSVA,WASTPES,QQYHRFPLS
4.21 n.d. 4.01,6/9 (3.58),KSSQSVLYWSRNKNSVC,WASTRMS,QQYHRLPLS
n.d. n.d. n.d.,0/9,KSSQSVLYESRNENSVA,WASRRES,QQYHRVPLS
n.d. n.d. n.d.,3/9 (3.89),KSSQSVLYESRNKISVA,WASTREP,QWYHRLPLS
0.07 0.40 0.26,1/9 (4.34),KSQQSVLYESRNKNSVS,GASTRES,QQYHRLPLS
3.68 n.d. n.d.,0/9,KSSQSVLYVSRNKNMVA,WSSTRES,QQYHRLPLS

6 of these entries, quoted again:

CDR-L1,CDR-L2,CDR-L3,log10 Kd (nM) by replicate,empty controls
KSSQSVLYESRNKFSVA,WASTRES,VHYHRLPLS,n.d. n.d. n.d.,0/9
KSSQSVLYESRNKNQVA,WASKRES,PQYHRLPLS,n.d. n.d. n.d.,0/9
KSSQSVLYESRNENSVA,WASRRES,QQYHRVPLS,n.d. n.d. n.d.,0/9
KSSRSVLYESRNKNSVA,WASTPES,QQYHRFPLS,3.12 3.43 n.d.,3/9 (5.43)
KSSQSPLYESRNKNSVA,WASTRES,QQYARLPLS,0.13 0.47 0.31,4/9 (5.50)
LSSQSVLYESRNKNSVA,WASTRES,QQRHRCPLS,1.27 1.34 1.39,0/9